Data as given in US20080234226A1, “Use Of Iron(III) Complex Compounds For The Preparation Of A Medicament For Oral Treatment Of Iron Deficiency States In Patients With Chronic Inflammatory Bowel Disease” (VIFOR (INTERNATIONAL) AG, priority 2005, published 2008).

System: patients with chronic inflammatory bowel disease
Experiment: Markers of oxidative stress (plasma, urine) before and after 14 days oral iron therapy
Details: mean (SEM)

Substance: iron(III)-polymaltose complex
- P-cysteine (after 14 days oral treatment): 209 (11) μmol/l
- P-vitamin C (after 14 days oral treatment): 54.5 (5.5) μmol/l
- P-cysteine (before treatment): 211 (11) μmol/l
- P-vitamin C (before treatment): 61.3 (5.1) μmol/l
